Earlier results, collected in patent US11807624B2, “Substituted pyrimidinones as agonists of the APJ receptor” (AMGEN INC., priority 2018, dated 2023).

Conditions: cited from earlier work

Apelin-13
plasma half-life: < 5 min
